In US8563257B2, “Sensitive and rapid methods of using chimeric receptors to identify autoimmune disease and assess disease severity” (Diagnostic Hybrids, Inc., priority 2000, dated 2013):
Each block holds one substance with its values, some of them ahead of it.

Key:
[1] = molecular target: T1, wild type human TSH receptor (Homo sapiens, UniProt P16473); assay: CHO-Rluc luciferase assay, hormones incubated three hours; type: cell-based; settings: for RLU, Hormones / Ratio of Signal/Negative: FSH 364 mIU/ml, LH 455 mIU/ml, hCG 29.5 IU/ml, hTSH 76 μIU/ml
T1 construct: expressed in transfected cells; host or cells: CHO-Rluc (from W-25 CHO-R cells)
Method: (§1) The CHO-RMc4luc cell line was also compared to the CHO-Rluc cell line for TSH sensitivity. The S/N ratio was derived from the luciferase assay using CHO-Rluc, CHO-RMc4luc and RD-RMc4luc cell lines induced with recombinant human TSH. Recombinant human TSH at various concentrations was incubated with CHO-RMc4luc or CHO-Rluc cell lines for three hours. After incubation, the luciferase assays were performed. […] FIG. 12.
(§2) CHO-RMc4luc and CHO-Rluc cell lines were also tested for their specificity using other anterior pituitary hormones including human luteinizing hormone, LH,) human follicle stimulating hormone (hFSH) and human chorionic gonadotropin (hCG), all of which share a common alpha subunit. […]

[2] = molecular target: T2, chimeric hTSH/rLH-R receptor (RMc4) (Homo sapiens, UniProt P16473, D276T/DEL293-355/DEL363-369/E727D/H271S/INS291KEQNFSFSIFENFSKQCESTVRKADNETLYSA/INS360LSGW/K262T/K287S/K290P/L265S/L267E/L270T/Q289L/Q359N/R274V/S266K/S268K/S278T/T273L); assay: CHO-RMc4luc luciferase assay, hormones incubated three hours; type: cell-based, human/rat; settings: for RLU, Hormones / Ratio of Signal/Negative: FSH 364 mIU/ml, LH 455 mIU/ml, hCG 29.5 IU/ml, hTSH 76 μIU/ml
T2 construct: contains a total of 2,324 base pairs and encodes 730 amino acids; expressed in transfected cells; host or cells: CHO-K1 (ATCC CCL-61), stably transfected with pMc4-GPH/Luciferase
Method: The response of the CHO-RMc4luc, RD-RMc4luc and CHO-Rluc cell lines to negative and positive TSI sera was then compared. The cells were incubated with TSI negative and positive sera for three hours. Cells were then lysed and luciferase activity was measured by a Veritas Microplat Luminometer. […] FIGS. 10A, 10B, 10C, 10D and 10E. […] FIGS. 10B and 10D, respectively. CHO-RMc4luc cells were about 1.3 to 3.5 more sensitive than RD-RMc4luc cells. FIG. 10E. In addition, the CHO-RMc4luc had lower levels of induced luciferase activity than CHO-Rluc when tested with TSI negative serum leading to lower background and increased signal/negative (S/N) ratios. FIG. 10A. […] FIG. 10A and FIG. 10C, respectively. […] FIG. 10E.
as §1, §2

[3] = molecular target: T3, human TSH receptor (Homo sapiens, UniProt P16473); assay: CHO-Rluc luciferase assay with Starvation and Stimulation Media (with or without PEG); type: cell-based
T3 construct: expressed in transfected cells; host or cells: CHO-Rluc (from W-25 CHO-R cells)
Method: In these experiments, CHO-Rluc cells prepared as described in Example 1 were used in assays for diagnosis of Graves' disease. To prepare 24 monolayers for testing, 24 wells in a 96-well microtiter plate were first treated by adding 50-100 μl 0.1% gelatin solution (Sigma) to enhance attachment of the cells to the bottom of the 24 wells chosen for the test. Following incubation for approximately 1 minute at room temperature, the gelatin solution was removed from each of the wells by aspiration. It was noted that the gelatin can remain on the wells for longer than one minute. The gelatin serves to coat the wells with collagen, so that the cells attach more quickly to the wells and reach confluence more rapidly. However, cells can be planted and grown to confluence without gelatin and still perform well.
A freezer vial of CHO-Rluc cells produced as described in Example 1 was rapidly thawed in a 37° C. water bath to provide approximately 0.4 ml cell suspension, which was well-mixed using a pipette. The cells were then added to 2.5 ml GM (also referred to as “Planting Medium”), thoroughly mixed by vortexing for 1-2 seconds, and 100 μl aliquots of the cell suspension were added to each well, and the plates were covered. It is preferable to produce an even distribution of cells in each well. Thus, to avoid uneven cell distributions, the microtiter plate should be placed in a vibration-free hood for cell planting and attachment of cells to the walls of the microtiter plate. The planted cells were then incubated at 35-37° C., in a humidified atmosphere, containing 5% CO2, for approximately 20-24 hours, to allow the cells to form a nearly or completely confluent monolayer.
The GM was then aspirated from each well as completely as possible, being careful not to disturb the monolayers (i.e., confluent monolayers remain in the wells).
Then, in an alternative method to that previously described, 10 μl of patient, control, and TSH standard solutions were added to the appropriate wells. The TSH standards and IgG samples were diluted with diluent (i.e., HBSS-NaCl+222 mM sucrose). The TSH standards were tested at concentrations of 0, 10, 100, 1000, and 5000 μIU. Patient samples were diluted to a concentration of 10 mg protein/ml for use in the assay. As the Stimulation Medium is viscous, thorough mixing of the suspensions was important. Adequacy of the mixing was ascertained by microscopic examination of the monolayers. The plates were incubated for 4 hours at 35-37° C. in a 5% CO2, humidified incubator. The medium was carefully aspirated from each well and 150 μl lysis solution (Promega) was added to each well. The lysis solution contained 25 mM Tris-phosphate, pH 7.8, 2 mM diaminocyclohexane tetraacetic acid (CDTA), 2 mM dithiothreitol (DTT), 10% glycerol, and 1% Triton X-100. The plates were then incubated for 30 minutes at room temperature, to allow the monolayers to lyse. Following lysis, each well was scraped and stirred using a pipet tip. […] The tubes were vortexed for 1-2 seconds and the RLU/sec values determined, using settings of 5 seconds delay and 10 second read. To obtain average net values, the average of the “0 TSH” (i.e., the negative control) samples was subtracted from all test average values.
In these experiments, once the cell monolayers contained within the wells of 96-well microtiter plates (as described above), reached confluence, the Growth Medium was removed by aspiration and 100 μl of Starvation Medium were added to each monolayer. The plates were then incubated for 16-24 hours at 35-37° C., in a humidified atmosphere containing 5% CO2, to starve or condition the cells. The Starvation Medium was then aspirated from the wells.
To perform the assay, 10 μl of the patient specimen IgG, bTSH standards, and IgG controls (normal and Graves' disease sera), were added to the monolayers in triplicate. The suspensions were mixed within each well, and incubated under the above conditions for 4 hours. […]

[4] = molecular target: T3, human TSH receptor; assay: CHO-Rluc luciferase assay, method of Evans et al. (charcoal-stripped calf serum); type: cell-based; settings: zero TSH standard subtracted
Method: In these experiments, the performance of CHO-Rluc cells using the method described by Evans et al. (Evans et al., J. Clin. Endocrinol. Metabol., 84:374 (1999)) was evaluated. The media from the cell monolayers in the 24 wells used in the 96-well microtiter plates prepared as described in Example 2 were aspirated and replaced with 100 μl Ham's F-12 medium containing 10% charcoal-stripped calf serum (Sigma), and incubated overnight at 35-37° C., in a humidified atmosphere containing 5% CO2.
Then, 10 μl of bovine TSH standards diluted to a range of concentrations (e.g., 0 10, 100, and 1000 μIU) and Graves' IgG (dissolved to a concentration of 10 mg protein/ml in charcoal-stripped calf serum) were added to respective quadruplicate wells. The suspension in each well was mixed, and the plates were incubated for 4 hours at 35-37° C., in a humidified atmosphere containing 5% CO2. The medium was then aspirated from each of the wells, and 150 μl of lysis buffer (Promega, as described above) were added to each well. The plates were then incubated at room temperature for 30 minutes to allow lysis of the cells in the wells. […] The luminometer read out provided results as relative light units per second (RLU/sec). The negative or “zero” TSH standard value was subtracted from each of the readings. […]

RLU, Hormones [1]: 728 RLU
Ratio of Signal/Negative [1]: 0.7
RLU, Hormones [2]: 1019 RLU
Ratio of Signal/Negative [2]: 0.6
Substance: FSH: human follicle stimulating hormone, anterior pituitary hormone sharing the common alpha subunit
cross activity with anterior pituitary hormones [1]: Neither cell line showed any cross activity
cross activity with anterior pituitary hormones [2]: Neither cell line showed any cross activity

RLU, Hormones [1]: 835 RLU
Ratio of Signal/Negative [1]: 0.8
RLU, Hormones [2]: 1561 RLU
Ratio of Signal/Negative [2]: 0.9
Substance: LH: human luteinizing hormone, anterior pituitary hormone sharing the common alpha subunit
cross activity with anterior pituitary hormones [1]: Neither cell line showed any cross activity
cross activity with anterior pituitary hormones [2]: Neither cell line showed any cross activity

net RLU/sec ([3]; Starvation Medium HBSS-NaCl + 222 mM sucrose, 10 μIU TSH/ml): 2,188 RLU/sec
net RLU/sec ([3]; Starvation Medium HBSS-NaCl + 222 mM sucrose, 1000 μIU TSH/ml): 142,666 RLU/sec
net RLU/sec ([3]; Starvation Medium standard HBSS with 20 mM sucrose, 10 μIU TSH/ml): 14,390 RLU/sec
net RLU/sec ([3]; Starvation Medium standard HBSS with 20 mM sucrose, 1000 μIU TSH/ml): 156,548 RLU/sec
RLU/sec ([3]; bTSH 10 μIU TSH · ml): 5,921 RLU/sec
RLU/sec ([3]; bTSH 25 μIU TSH · ml): 20,227 RLU/sec
RLU/sec ([3]; bTSH 50 μIU TSH · ml): 34,426 RLU/sec
RLU/sec ([3]; bTSH 75 μIU TSH · ml): 54,396 RLU/sec
RLU/sec ([3]; bTSH 100 μIU TSH · ml): 62,206 RLU/sec
correlation coefficient (r) of the response to bTSH ([3]; bTSH dilutions 0-100 μIU): 0.9925
net RLU/sec ([3]; pre-incubation medium CHO Char (10% charcoal-stripped calf serum), 10 μIU TSH/ml): 5,602 RLU/sec
net RLU/sec ([3]; pre-incubation medium CHO Char (10% charcoal-stripped calf serum), 1000 μIU TSH/ml): 229,492 RLU/sec
net RLU/sec ([3]; pre-incubation medium CHO GM (10% FBS), 10 μIU TSH/ml): 782 RLU/sec
net RLU/sec ([3]; pre-incubation medium CHO GM (10% FBS), 1000 μIU TSH/ml): 265,195 RLU/sec
net RLU/sec ([3]; starvation standard HBSS, Stimulation Medium HBSS-NaCl + 111 mM sucrose + 6% PEG-8000, 10 μIU TSH/ml): 5,980 RLU/sec
net RLU/sec ([3]; starvation standard HBSS, Stimulation Medium HBSS-NaCl + 111 mM sucrose + 6% PEG-8000, 1000 μIU TSH/ml): 207,831 RLU/sec
net RLU/sec ([3]; starvation standard HBSS, Stimulation Medium HBSS-NaCl + 222 mM sucrose, no PEG, 10 μIU TSH/ml): 1,336 RLU/sec
net RLU/sec ([3]; starvation standard HBSS, Stimulation Medium HBSS-NaCl + 222 mM sucrose, no PEG, 1000 μIU TSH/ml): 82,466 RLU/sec
net RLU/sec ([3]; starvation with the Stimulation Medium, 10 μIU TSH/ml): −1,148 RLU/sec
net RLU/sec ([3]; starvation with the Stimulation Medium, 1000 μIU TSH/ml): 47,478 RLU/sec
net RLU/sec ([4]; TSH 10 μIU/μl): 4031 RLU/sec
net RLU/sec ([4]; TSH 1000 μIU): 222,801 RLU/sec
Substance: bTSH: bovine thyroid stimulating hormone standards
